Values of other authors, collected in publication PMC3654037.

Protein sequences, listed by entry. Tags and fused reporters are not part of them. Residues count along the entry.
UniProt Q9NQS3, 58-404: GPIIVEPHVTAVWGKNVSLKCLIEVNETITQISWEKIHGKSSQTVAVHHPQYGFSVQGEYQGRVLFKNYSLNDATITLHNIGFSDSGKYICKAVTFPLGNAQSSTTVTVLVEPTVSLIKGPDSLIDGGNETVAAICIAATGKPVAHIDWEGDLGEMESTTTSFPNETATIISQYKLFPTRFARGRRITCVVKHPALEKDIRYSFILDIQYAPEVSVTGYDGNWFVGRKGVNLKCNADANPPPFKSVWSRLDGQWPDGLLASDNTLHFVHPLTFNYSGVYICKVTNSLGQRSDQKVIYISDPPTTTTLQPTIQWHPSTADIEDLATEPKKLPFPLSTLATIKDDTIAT

Target: nectin-3 (Homo sapiens) (UniProt Q9NQS3)

Kd: 228 µM
Substance: nectin-3 (from UniProt Q9NQS3)
